Experimental data reported in paper PMC3577813.
Values belong to the substance of their own block, whether it stands above or below them.

Legend:
[1] = target: human α4β2 nicotinic acetylcholine receptor (human) (UniProt P43681)
[2] = target: human α4β4 nicotinic acetylcholine receptor (human) (UniProt P43681)
[3] = target: human α7 nicotinic acetylcholine receptor (human) (UniProt P36544)
[4] = target: human α4β2 nicotinic acetylcholine receptor (human) (UniProt P43681); remark: listed apart in the source
[5] = target: human α4β2 nicotinic acetylcholine receptor (human) (UniProt P43681); remark: listed apart in the source
[6] = target: human α4β2 nicotinic acetylcholine receptor (human) (UniProt P43681); remark: listed apart in the source

- peak current after 10 min in 10 nM large oligomeric α-synuclein without repetitive nicotine challenges [1]: 67.5%
- peak current with repeated nicotine application (2 min interval) in 10 nM large oligomeric α-synuclein for 10 min [1]: 70.8%
- peak amplitude of the hα4β4-nAChR-mediated current (3 µM nicotine) with 10 nM large oligomeric α-synuclein (not significant) [2]: 96.5%
- peak amplitude of the hα7-nAChR-mediated current (3 mM choline) with 10 nM large oligomeric α-synuclein (not significant) [3]: 93.1%
- peak amplitude of the hα4β2-nAChR-mediated current (3 µM nicotine) with 10 nM large oligomeric α-synuclein [4]: 62.9%
- normalized peak amplitude of the nicotinic response after 10 min exposure to large oligomeric α-synuclein [5]: 63.5%
Substance: large oligomeric α-synuclein (>4 nm) (from UniProt P37840 1-140) (natural protein)

- normalized peak amplitude of the nicotinic response after 10 min exposure to monomeric α-synuclein from size exclusion (not significant) [5]: 92.5%
Substance: monomeric α-synuclein (from UniProt P37840 1-140) (natural protein)

- ACh-induced peak whole-cell current with 10 nM oligomeric α-synuclein [6]: 81.5 % of control
- ACh-induced steady-state whole-cell current with 10 nM oligomeric α-synuclein [6]: 78.3 % of control
- nicotine-induced peak current, 10 nM oligomeric α-synuclein co-applied with nicotine without pretreatment (no significant inhibition) [6]: 93.7%
- peak whole-cell current induced by 3 µM nicotine after 2 min pretreatment with 10 nM oligomeric α-synuclein, patch clamp on SH-EP1 cells [6]: 77.9 % of control
- steady-state whole-cell current induced by 3 µM nicotine after 2 min pretreatment with 10 nM oligomeric α-synuclein [6]: 82.8 % of control
Substance: oligomeric α-synuclein (from UniProt P37840 1-140) (natural protein)

- normalized peak amplitude of the nicotinic response after 10 min exposure to small oligomeric α-synuclein (not significant) [5]: 93.2%
Substance: small oligomeric α-synuclein (1–4 nm) (from UniProt P37840 1-140) (natural protein)
